According to PubChem BioAssay AID581 (PCMD, 2007):
This is a selection; strong and weak results do not stand in their true shares. Active and inactive are the calls of the source.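 How the source made its calls: active means inhibition above 20% in each of the two mixture wells holding the compound; inactive means inhibition of 20% or less in either well.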

The chains behind the UniProt entries cited, without tags or fusion partners. Where a name states a change or a piece, a line headed by the entry shows the natural chain unless it says otherwise.
UniProt P08311: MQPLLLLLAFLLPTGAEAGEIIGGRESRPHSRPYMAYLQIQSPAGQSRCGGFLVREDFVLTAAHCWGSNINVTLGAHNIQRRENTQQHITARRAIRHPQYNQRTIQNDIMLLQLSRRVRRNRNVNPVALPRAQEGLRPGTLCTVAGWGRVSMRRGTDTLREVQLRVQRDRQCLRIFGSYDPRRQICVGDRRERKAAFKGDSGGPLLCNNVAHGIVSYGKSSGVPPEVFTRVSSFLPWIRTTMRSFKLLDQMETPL

target: Cathepsin G (Homo sapiens) (UniProt P08311); experiment: blockers of neutrophil cathepsin G protease – biochemical, pooled compound mixtures, AMC fluorescence, primary screen (AID 581); conditions: purified enzyme, AMC-tetrapeptide fluorescence, hits give high values, screened at 5 µM (by protocol);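 further: 0% = enzyme control without mixture and 100% = blank lacking enzyme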

Row | SMILES | inhibition
1 | O=C(OC1CN2CCC1CC2)C12CC3CC(CC(C3)C1)C2 (stereo not given) | inactive: -2.34%
2 | COP1(=S)c2c(C)nn(CCC#N)c2N=C(c2ccc(F)cc2)N1C (stereo not given) | inactive: 9.21%
3 | O=C(COc1ccccc1)OC1CN2CCC1CC2 (stereo not given) | inactive: 9.91%
4 | O=P1(Nc2ncccn2)COc2ccccc2OC1 | inactive: 12.2%
5 | Cc1ccc(OCC(=O)OC2CN3CCC2CC3)cc1 (stereo not given) | inactive: 6.45%
6 | O=P1(Nc2ccc(Br)cn2)COc2ccccc2OC1 | inactive: -32.9%
7 | Cc1nn(-c2ccccc2)c2c1P(=O)(N1CCOCC1)N(C)C(c1ccccc1)=N2 (stereo not given) | inactive: 1.25%
8 | O=P1(Nc2ccccn2)COc2ccccc2OC1 | inactive: 10.2%
9 | Clc1n[nH]nc1-c1nn[nH][15n]1 | inactive: 6.87%
10 | Cc1cccc(OCC(=O)OC2CN3CCC2CC3)c1 (stereo not given) | inactive: 16.1%
11 | CCOP1(=S)c2c(C)nn(CCC#N)c2N=C(c2ccc(F)cc2)N1C (stereo not given) | inactive: 0.65%
12 | O=P(Nc1nccs1)(c1ccccc1)c1nc2ccccc2s1 (stereo not given) | inactive: 24%
13 | CCOP1(=S)c2c(C)nn(CCC#N)c2N=C(c2ccccc2F)N1C (stereo not given) | inactive: -13.6%
14 | COC(=O)c1cc2c(s1)N=C(c1ccccc1)N(C)P2(=O)N1CCOCC1 (stereo not given) | inactive: 12.9%
15 | O=P1(Nc2nc3ccc(Cl)cc3s2)COc2ccccc2O1 (stereo not given) | inactive: 4.07%
16 | O=P(Nc1nccs1)(c1ccccc1)c1ccccc1 | inactive: -1.94%
17 | c1nnnn1CCn1cnnn1 | inactive: -1.98%
18 | O=C(OC1CN2CCC1CC2)c1cccc(Cl)c1 (stereo not given) | inactive: -5.55%
19 | CCc1nc2c(n1)c1c(non1O)c1c2no[n+]1[O-] | inactive: -2.55%
20 | Cc1c2non([O-])c-2c(C)[n+](=O)[n+]1[O-] | inactive: -0.89%
